Holding throughout (type): binding
What all share (conditions): read-out: Ref Kj

By UniProt entry, the sequences of proteins in these tests, tags left out.
UniProt P30989, whole entry: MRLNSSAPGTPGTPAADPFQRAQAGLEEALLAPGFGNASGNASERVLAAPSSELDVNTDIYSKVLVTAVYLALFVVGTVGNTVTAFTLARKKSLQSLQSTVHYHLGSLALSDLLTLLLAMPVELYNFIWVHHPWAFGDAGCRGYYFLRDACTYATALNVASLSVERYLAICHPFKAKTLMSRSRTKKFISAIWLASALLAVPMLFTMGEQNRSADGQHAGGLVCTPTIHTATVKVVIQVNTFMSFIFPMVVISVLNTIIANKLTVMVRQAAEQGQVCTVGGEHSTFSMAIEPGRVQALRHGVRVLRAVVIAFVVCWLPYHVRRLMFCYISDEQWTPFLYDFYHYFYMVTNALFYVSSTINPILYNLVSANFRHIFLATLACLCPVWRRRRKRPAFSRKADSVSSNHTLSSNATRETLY
UniProt P25929, whole entry: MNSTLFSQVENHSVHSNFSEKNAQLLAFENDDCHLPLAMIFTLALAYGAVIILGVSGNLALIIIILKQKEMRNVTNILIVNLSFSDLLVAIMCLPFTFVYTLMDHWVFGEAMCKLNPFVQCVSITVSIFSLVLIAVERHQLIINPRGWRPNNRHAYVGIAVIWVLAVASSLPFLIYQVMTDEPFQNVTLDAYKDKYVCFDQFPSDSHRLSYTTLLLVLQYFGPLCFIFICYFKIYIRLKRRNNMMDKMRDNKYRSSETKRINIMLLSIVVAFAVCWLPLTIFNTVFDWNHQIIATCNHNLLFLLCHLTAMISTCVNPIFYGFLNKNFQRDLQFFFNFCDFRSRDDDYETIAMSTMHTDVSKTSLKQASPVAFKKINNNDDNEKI
UniProt P30560, whole entry: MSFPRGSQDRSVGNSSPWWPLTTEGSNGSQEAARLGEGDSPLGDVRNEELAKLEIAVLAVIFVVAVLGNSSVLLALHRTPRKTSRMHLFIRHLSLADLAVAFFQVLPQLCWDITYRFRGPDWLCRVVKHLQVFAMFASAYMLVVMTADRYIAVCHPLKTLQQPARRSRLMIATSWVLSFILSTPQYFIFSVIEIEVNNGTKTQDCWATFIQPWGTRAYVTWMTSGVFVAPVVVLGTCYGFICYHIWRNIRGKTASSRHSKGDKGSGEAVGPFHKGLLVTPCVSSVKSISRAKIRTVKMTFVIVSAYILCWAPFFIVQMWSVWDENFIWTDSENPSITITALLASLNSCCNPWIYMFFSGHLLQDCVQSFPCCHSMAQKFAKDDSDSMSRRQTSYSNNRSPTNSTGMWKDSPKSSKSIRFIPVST

One assay deals with T1, Neurotensin (Homo sapiens, UniProt P30989).
T1 construct: expressed in transfected cells

The next assay concerns the target Neuropeptide, NPY1 (Homo sapiens, UniProt P25929). Description: Neuropeptide, NPY1 (Human); [125I]PYY.
The next assay concerns the target T2, Vasopressin 1 (Rattus norvegicus, UniProt P30560).
T2 construct: no other source notation after assay name denotes animal cell or animal tissue source; from tissue

Regarding Acetyl-NT (8-13), the Ki on Neurotensin stood at 0.34 nM. With NPY (porcine), on Neuropeptide, NPY1, the Ki worked out at 3.45 nM. For the substance “Arg8-Vasopressin [Arg8-Vasopressin (AVP)]”, the Ki on Vasopressin 1 was determined as 0.998 nM.

For the origin of these results see US20020187514A1 (priority 1999, published 2002).
